Measurements taken from ChEMBL document CHEMBL5584361, “Re-Evaluating PIN1 as a Therapeutic Target in Oncology Using Neutral Inhibitors and PROTACs” (J Med Chem, 2024).

What was measured:
MDA-MB-468 = assay: Antiproliferative activity against human MDA-MB-468 cells assessed as cell growth inhibition incubated for 96 hrs by Cell-Titer Glo assay; conditions: MDA-MB-468, 96 h
[1] = Permeability across apical to basolateral side in MDCK cells incubated for 120 mins by LC-MS/MS analysis; conditions: dog
Huh-7 = assay: Antiproliferative activity against human Huh-7 cells assessed as cell growth inhibition incubated for 96 hrs by Cell-Titer Glo assay; conditions: Huh-7, 96 h
PANC-1 = assay: Antiproliferative activity against human PANC-1 cells assessed as cell growth inhibition incubated for 96 hrs by Cell-Titer Glo assay; conditions: PANC-1, 96 h

Structure (SMILES): CNC(=O)C(Cc1cn(-c2ccc(-c3ccc(C#N)cc3)cc2)nn1)NC(=O)C1(c2ccccc2)CC1 (centres undefined)
- GI50 (MDA-MB-468): 37.1 µM
- Papp A→B at 2 h [1]: 0.57 ×10⁻⁶ cm/s
- GI50 (Huh-7): 19.1 µM
- GI50 (PANC-1): > 30 µM
